Measured values from patent US20130059783A1, “COMPOSITIONS AND METHODS FOR EXPANDING BFU-E CELLS” (priority 2010, published 2013).

System: mRNA expression in BFU-E cells
Experiment: mRNA-Seq of BFU-E cells cultured 4 hours with or without Dex (Table S3)
Type: cell-based, mouse
From the text: FIGS. 2A-2B. The effect of glucocorticoids on miRNA and mRNA expression in BFU-E cells determined by next generation sequencing. […] Both mRNAs and miRNAs were subjected to Illumina deep sequencing. […] (B) A plot similar to that in A for expression of individual mRNAs. mRNA expression was normalized using the RPKM method, which determines the relative expression of each gene to all expressed genes by giving each gene an RPKM count (number of uniquely aligning reads per kb exon per million total reads). […]
To minimize the risk of false positive GC target genes we chose to compare only highly expressed genes (≈10,000 genes with a multiplied RPKM count >4) (Mortazavi et al., 2008).
Samples for Paired-End mRNA-Seq were prepared using the Solexa kit according to the manufacturer's instructions with the exception that we extracted 300 bp bands, before and after the PCR step (Illumina). Images acquired from the Solexa sequencer were processed through the bundled Solexa image extraction pipeline version 1.4. mRNA-Seq reads were aligned to mouse NCBI build 37 (mm9) using ELAND, Briefly, the first 32 bases of a read were used as a seed. Each matched seed was then extended up to 36 bases and scored to break any ties between multi-matches. For mRNA expression counts, unique reads in the genome that landed within any exons of NCBI gene models (v37.1) were counted. The counts were normalized by the mRNA length to get the final RPKM values (i.e. reads per KB per million reads).

SMILES: C[C@@H]1C[C@H]2[C@@H]3CCC4=CC(=O)C=C[C@]4(C)[C@@]3(F)[C@@H](O)C[C@]2(C)[C@@]1(O)C(=O)CO [Dex, dexamethasone]
- Expression level log2((100 nM DEX)* (0 nM DEX)) (gene Aqp3): 4.27
- Expression change log2 ((100 nM DEX)/(0 nM DEX))2 (gene Fam55c): 1.07
- Expression change log2 ((100 nM DEX)/(0 nM DEX))2 (gene Fkbp11): 1.07
- Expression change log2 ((100 nM DEX)/(0 nM DEX))2 (gene Glul): 1.03
- Expression of mRNA in BFU-E after 4 h 100 nM DEX (RPKM) (gene Ier3, 100 nM DEX): 5.65 RPKM
- Expression change log2 ((100 nM DEX)/(0 nM DEX))2 (gene Kit): 1.07
- Expression of mRNA in BFU-E after 4 h 100 nM DEX (RPKM) (gene Klf5, 100 nM DEX): 4.68 RPKM
- Expression change log2 ((100 nM DEX)/(0 nM DEX)) (gene Klf5, 100 nM vs 0 nM DEX): 1.89
- Expression change log2 ((100 nM DEX)/(0 nM DEX)) (gene Ncoa7, 100 nM vs 0 nM DEX): 1.89
- Expression change log2 ((100 nM DEX)/(0 nM DEX))2 (gene Zfp36l2): 1.35
